Experimental data reported in publication PMC4620045 (Journal of pharmacokinetics and pharmacodynamics, 2015).

Assay: Global PBPK model fitted to mouse plasma and tissue PK data
Format: in vivo
Conditions: mice, model estimate

Permeability (PStc,ti) (Liver): 0.287 mL/min
Permeability (PStc,ti) (Muscle): 0.123 mL/min
SMILES: CC(C)C[C@H](NC(=O)[C@H](Cc1ccccc1)NC(=O)c1cnccn1)B(O)O [Bortezomib]
